From patent publication US20210363213A1, “GLUCAGON-GLP-1-GIP TRIPLE AGONIST COMPOUNDS” (priority 2013, published 2021)

Chains of the proteins cited; added tags and fusions are not shown. Residues count along the entry.
UniProt P43220, 24-463: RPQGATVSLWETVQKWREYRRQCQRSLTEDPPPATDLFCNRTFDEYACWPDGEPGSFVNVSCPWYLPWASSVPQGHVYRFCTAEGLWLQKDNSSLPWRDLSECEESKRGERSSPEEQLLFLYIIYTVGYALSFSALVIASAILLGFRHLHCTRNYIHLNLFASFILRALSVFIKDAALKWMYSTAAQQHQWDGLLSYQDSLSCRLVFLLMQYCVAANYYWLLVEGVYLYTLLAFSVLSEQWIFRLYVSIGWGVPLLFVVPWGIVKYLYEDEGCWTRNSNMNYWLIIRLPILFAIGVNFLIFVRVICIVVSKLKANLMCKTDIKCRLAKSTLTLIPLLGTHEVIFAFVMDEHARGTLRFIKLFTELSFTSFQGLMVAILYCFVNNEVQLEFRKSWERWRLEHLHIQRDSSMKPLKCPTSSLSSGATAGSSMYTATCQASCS

How the values were obtained:
human GIP R = biological target: T1, human GIP R (Homo sapiens, UniProt P48546); experiment: Human GIP receptor (GIP-R) activity assay, cAMP induction (AlphaScreen) in HEK293 cells; assay type: cell-based; details: read-out: GIP R (EC50 in nM); Table 2b (most comprehensive data); average EC50; cAMP in HEK293 cells expressing human GIP R
T1 construct: expressed in transfected cells
T1 sequence (P48546 22-466): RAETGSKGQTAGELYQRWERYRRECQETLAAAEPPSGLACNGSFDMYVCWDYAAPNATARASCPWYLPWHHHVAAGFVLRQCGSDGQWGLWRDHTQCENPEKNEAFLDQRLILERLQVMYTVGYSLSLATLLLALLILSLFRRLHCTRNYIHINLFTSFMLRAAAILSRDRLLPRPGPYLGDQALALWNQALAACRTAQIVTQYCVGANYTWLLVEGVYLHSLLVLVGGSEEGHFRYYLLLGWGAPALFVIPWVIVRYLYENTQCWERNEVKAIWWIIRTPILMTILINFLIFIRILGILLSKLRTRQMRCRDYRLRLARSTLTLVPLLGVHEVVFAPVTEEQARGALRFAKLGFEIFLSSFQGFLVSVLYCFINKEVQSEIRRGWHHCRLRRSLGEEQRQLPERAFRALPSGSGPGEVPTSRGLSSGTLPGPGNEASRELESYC

human GLP-1 R = biological target: T2, human GLP-1 R (Homo sapiens, UniProt P43220); experiment: Human GLP-1 receptor (GLP-1-R) activity assay, cAMP induction (AlphaScreen) in HEK293 cells; assay type: cell-based; details: read-out: GLP1 R (EC50 in nM); Table 2b (most comprehensive data); average EC50; cAMP in HEK293 cells expressing human GLP-1 R
T2 construct: expressed in transfected cells

Q: With glucagon [reference compound] as the substance, how does the EC50 (human GIP R) read?
A: > 10 nM

Q: What about the EC50 (human GLP-1 R) of the same substance?
A: 0.48 nM
